According to PubChem BioAssay AID651711 (Broad Institute, 2012):
The entries are a selection whose mix differs from that of the whole data set. Some structures show a salt or complex split into parts, the way the source records it. Activity calls are given as the source filed them.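 Rule for the calls: active = mean replicate inhibition above about 25%, with every replicate also reaching it (limit read from the data, passing the limit was not always enough); inconclusive = only one of those two criteria met; inactive = neither criterion met.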

Chains of the proteins cited; added tags and fusions are not shown.
UniProt Q15084, whole entry: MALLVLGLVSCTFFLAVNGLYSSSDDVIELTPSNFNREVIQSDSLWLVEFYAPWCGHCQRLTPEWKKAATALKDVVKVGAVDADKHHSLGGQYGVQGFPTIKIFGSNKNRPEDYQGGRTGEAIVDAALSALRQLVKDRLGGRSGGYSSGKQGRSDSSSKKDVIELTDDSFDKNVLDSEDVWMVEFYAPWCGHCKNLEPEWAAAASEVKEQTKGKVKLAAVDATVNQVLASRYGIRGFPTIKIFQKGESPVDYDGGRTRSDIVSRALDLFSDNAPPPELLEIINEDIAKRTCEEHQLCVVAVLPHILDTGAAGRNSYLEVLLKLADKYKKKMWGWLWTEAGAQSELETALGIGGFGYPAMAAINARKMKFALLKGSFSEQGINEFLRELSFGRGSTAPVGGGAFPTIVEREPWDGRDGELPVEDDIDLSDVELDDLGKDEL

Each compound was assayed against Protein disulfide-isomerase A6 (Homo sapiens) (UniProt Q15084) (assay: inhibitors of ERp5-driven insulin aggregation, primary screen, biochemical, turbidity, absorbance 650 nm, single point (AID 651711)). Conditions: 90 min, at 9.99 µM, stronger effect = higher value.
CCN(CC)CCCNc1ccccc1[N+](=O)[O-].O=[N+]([O-])c1cc([N+](=O)[O-])c(O)c([N+](=O)[O-])c1 was tested, and the inhibition was inactive: 3.18%. COc1ccc(OP(C)(=O)Nc2ccc(SC(F)(F)F)cc2)cc1 (stereo unspecified) was tested, and the inhibition was inactive: -1.15%. With Cc1c([N+](=O)[O-])cc([N+](=O)[O-])c(Br)c1[N+](=O)[O-] the inhibition was inactive: -3.39%. With CCCCCOc1ccc(NP(C)(=O)Oc2ccc(Cl)cc2Cl)cc1 (stereo unspecified) the inhibition was inactive: 5.31%. O=[N+]([O-])c1cc([N+](=O)[O-])c(OC2CCCCC2O)c([N+](=O)[O-])c1 (stereo unspecified) was tested, and the inhibition was inactive: 1.84%. In the case of O=[N+]([O-])c1cc([N+](=O)[O-])c(Nc2ccc(Cl)cc2)c([N+](=O)[O-])c1, the inhibition is reported as inactive: -2.93%. CP(=O)(Nc1ccccc1F)Oc1ccccc1 (stereo unspecified) was tested, and the inhibition was inactive: 1.67%. CC(C)c1ccc(OP(C)(=O)Nc2ccc(SC(F)(F)F)cc2)cc1 (stereo unspecified) was tested, and the inhibition was inactive: 5.31%. With O=C(OC1CN2CCC1CC2)c1ccc([N+](=O)[O-])cc1 (stereo unspecified) the inhibition was inactive: -1.64%. With O=C(OCCN1CCN(CCOCc2ccccc2)CC1)C(O)(c1ccccc1)c1ccccc1 the inhibition was inactive: -3.57%. With COc1ccc2c(c1O)-c1c(O)c(OC)cc3c1[C@H](C2)[N+](C)(C)CC3.O=[N+]([O-])c1cc([N+](=O)[O-])c([O-])c([N+](=O)[O-])c1[O-] the inhibition was inactive: 2.61%. CP(=O)(Nc1ccc(SC(F)(F)F)cc1)Oc1ccc(F)cc1 (stereo unspecified) was tested, and the inhibition was inactive: 2.19%. In the case of CCOP(=O)(CC)OCC, the inhibition is reported as inactive: -10.7%. O=[N+]([O-])c1cc([N+](=O)[O-])c(C(F)(F)F)c([N+](=O)[O-])c1O was tested, and the inhibition was inactive: 3.6%. COc1ccc(NP(C)(=O)Oc2ccccc2OC)cc1 (stereo unspecified) was tested, and the inhibition was inactive: -0.291%. O=[N+]([O-])c1ccc(OP2(=O)COCCO2)cc1 (stereo unspecified) was tested, and the inhibition was inactive: -0.645%. With O=[N+]([O-])c1cc([N+](=O)[O-])c(NCC2CCS(=O)(=O)C2)c([N+](=O)[O-])c1 (stereo unspecified) the inhibition was inactive: 0.848%. With Cc1cc(-c2cccc3ccccc23)c(C)cn1.O=[N+]([O-])c1cc([N+](=O)[O-])c(O)c([N+](=O)[O-])c1 the inhibition was inactive: -6.45%. With Cc1c(C(c2ccc3c(c2)OCO3)c2c(C)n(C)n(-c3ccccc3)c2=O)c(=O)n(-c2ccccc2)n1C.O=[N+]([O-])c1cc([N+](=O)[O-])c(O)c([N+](=O)[O-])c1 the inhibition was inactive: -6.53%. For CCOC(=O)c1ccc(NP(C)(=O)Oc2ccc(Cl)cc2)cc1 (stereo unspecified), the inhibition was inactive: -0.662%. For O=C(OCCCN1CCCC1)C(O)(c1ccccc1)C1CCCCC1 (stereo unspecified), the inhibition was inactive: -4.88%. In the case of CCc1ccc(OP(C)(=O)Nc2cccnc2)cc1 (stereo unspecified), the inhibition is reported as inactive: 2.9%. For COc1ccccc1OP(C)(=O)Nc1ccccc1Br (stereo unspecified), the inhibition was inactive: -1.5%. CN(C)C(=O)c1c([N+](=O)[O-])cc([N+](=O)[O-])cc1[N+](=O)[O-] was tested, and the inhibition was inactive: 0.457%. COc1ccccc1OP(C)(=O)Nc1ccc(Br)cc1 (stereo unspecified) was tested, and the inhibition was inactive: -0.88%. In the case of O=[N+]([O-])c1cc([N+](=O)[O-])c(Nc2ccccn2)c([N+](=O)[O-])c1, the inhibition is reported as inactive: 6.27%. For Cc1cc(C)cc(OP(C)(=O)Nc2cccc(C(F)(F)F)c2)c1 (stereo unspecified), the inhibition was inactive: -7.51%. In the case of O=C1C(O)=C([N+](=O)[O-])C(=O)C(O)=C1[N+](=O)[O-], the inhibition is reported as inactive: 0.408%. In the case of CP(=O)(OCCOc1ccccc1)OCCOc1ccccc1, the inhibition is reported as inactive: -0.955%. CCCCCCCCCCCCCCCC1C[N+](C)(C)CCOP(C)(=O)O1 (stereo unspecified) was tested, and the inhibition was inactive: 3.63%. For CP(=O)(Nc1ccc(Cl)cc1Cl)Oc1ccccc1 (stereo unspecified), the inhibition was inactive: 2.07%. In the case of O=[N+]([O-])c1cc([N+](=O)[O-])c(Nc2cccnc2)c([N+](=O)[O-])c1, the inhibition is reported as inactive: -1.53%. With O=[N+]([O-])c1ccc2c(c1)C=Nc1ccccc1O2 the inhibition was inactive: 0.0345%. With Cc1cccc(C)c1OP(C)(N)=O (stereo unspecified) the inhibition was inactive: 1.12%. In the case of CC(C)(C)c1ccc(OP(C)(=O)Nc2ccc(SC(F)(F)F)cc2)cc1 (stereo unspecified), the inhibition is reported as inactive: 4.07%. With Cc1cc(C)cc(OP(C)(N)=O)c1 (stereo unspecified) the inhibition was inactive: 4.18%. COc1ccccc1OP(C)(=O)Nc1cc(Cl)ccc1C (stereo unspecified) was tested, and the inhibition was inactive: 15.1%. For CCN(CC)CCCOC(=O)C(O)(c1ccccc1)c1ccccc1, the inhibition was inactive: -4.4%. For COc1ccccc1-c1ccccn1.O=[N+]([O-])c1cc([N+](=O)[O-])c(O)c([N+](=O)[O-])c1, the inhibition was inactive: 2.06%. CP(=O)(Oc1ccccc1)OC(c1ccccc1)C(F)(F)F (stereo unspecified) was tested, and the inhibition was inactive: -0.895%. For CP(=O)(Nc1ccc(SC(F)(F)F)cc1)Oc1ccc(Cl)cc1 (stereo unspecified), the inhibition was inactive: -6.84%. In the case of CP(=O)(NC(=O)Nc1ccccc1)Oc1ccccc1 (stereo unspecified), the inhibition is reported as inactive: 5.45%. In the case of CCOC(=O)c1ccc(NP(C)(=O)Oc2ccc(OC)cc2)cc1 (stereo unspecified), the inhibition is reported as inactive: -5.58%. For O=[N+]([O-])c1cc([N+](=O)[O-])c(O)c([N+](=O)[O-])c1.c1ccc(Oc2ccncc2)cc1, the inhibition was inactive: -0.189%. In the case of CP(=O)(Nc1ccccn1)Oc1ccc(Cl)cc1 (stereo unspecified), the inhibition is reported as inactive: 3.44%. For CP(=O)(Nc1ccccc1Br)Oc1ccccc1 (stereo unspecified), the inhibition was inactive: -2.77%. COc1ccccc1OP(C)(=O)Nc1ccccc1 (stereo unspecified) was tested, and the inhibition was inactive: 1.74%. For CCOC(=O)C(CC)C1=NC(C)(C)Cc2ccccc21.O=[N+]([O-])c1cc([N+](=O)[O-])c(O)c([N+](=O)[O-])c1 (stereo unspecified), the inhibition was inactive: -5.4%. With O=[N+]([O-])c1cc([N+](=O)[O-])c(Nc2nnnn2CCO)c([N+](=O)[O-])c1 the inhibition was inactive: 3.13%. For CN1CCCCC1COC(=O)C1(O)c2ccccc2CCc2ccccc21 (stereo unspecified), the inhibition was inactive: -6.25%. For COc1ccc(-c2ccccn2)cc1.O=[N+]([O-])c1cc([N+](=O)[O-])c(O)c([N+](=O)[O-])c1, the inhibition was inactive: -0.234%. In the case of CCCOc1ccc(NP(C)(=O)Oc2ccc(Cl)cc2)cc1 (stereo unspecified), the inhibition is reported as inactive: -0.194%. With O=[N+]([O-])c1cc([N+](=O)[O-])c(-n2nnc3ccccc32)c([N+](=O)[O-])c1 the inhibition was inactive: -9.94%. CN(Cc1cccnc1)C(=O)COc1ccc(Cl)c(Cl)c1.O=[N+]([O-])c1cc([N+](=O)[O-])c(O)c([N+](=O)[O-])c1 was tested, and the inhibition was inactive: -10.2%. For O=[N+]([O-])c1cc([N+](=O)[O-])c(-c2cnn(-c3ccccc3)c2)c([N+](=O)[O-])c1, the inhibition was inactive: -0.352%. For COc1ccccc1OP(C)(=O)Nc1cccc(Br)c1 (stereo unspecified), the inhibition was inactive: 7.63%. CCOC(=O)c1ccc(NP(C)(=O)Oc2cc(C)cc(C)c2)cc1 (stereo unspecified) was tested, and the inhibition was inactive: 0.175%. Cc1cc(C)cc(OP(C)(=O)Nc2ccc(C)cc2C)c1 (stereo unspecified) was tested, and the inhibition was inactive: 2.18%. CP(=O)(Nc1cccc(Br)c1)Oc1ccccc1 (stereo unspecified) was tested, and the inhibition was inactive: -3.42%. For Cc1cc(C)cc(OP(C)(=O)Nc2ccccn2)c1 (stereo unspecified), the inhibition was inactive: 4.11%. In the case of O=C(O)c1cccc(Nc2c([N+](=O)[O-])cc([N+](=O)[O-])cc2[N+](=O)[O-])c1, the inhibition is reported as inactive: -8.97%.
